Test results reported in US20260146038A1, “NOVEL SALT OF DIMETHYL-2,3-DIHYDRO-1H-INDENE DERIVATIVE AND PROCESSES FOR PREPARING THE SAME” (YUHAN CORPORATION, priority 2022, published 2026).

Key:
[1] = Hygroscopicity evaluation by Dynamic Vapor Sorption (DVS); format: physicochemical; conditions: weight change, room temperature (about 25° C.), RH 80%, 24 hours
[2] = Water-solubility evaluation; format: physicochemical; conditions: 20° C.
Experimental: The water-solubilities at 20° C. for the (S)-quinuclidin-3-yl (5-(3-chloro-4-isopropoxyphenyl)-2,2-dimethyl-2,3-dihydro-1H-inden-1-yl)carbamate prepared according to the method disclosed in WO 2021/096238 (‘the compound of WO 2021/096238’, in the form of free base) and the compound obtained in Example 1 were measured.

tartaric acid salt of (S)-quinuclidin-3-yl ((R)-5-(3-chloro-4-isopropoxyphenyl)-2,2-dimethyl-2,3-dihydro-1H-inden-1-yl)carbamate [Comparative Example 2]
Moisture adsorption [1]: 11.6%

((1S,4R)-7,7-dimethyl-2-oxobicyclo[2.2.1]heptan-1-yl)methanesulfonic acid salt of (S)-quinuclidin-3-yl ((R)-5-(3-chloro-4-isopropoxyphenyl)-2,2-dimethyl-2,3-dihydro-1H-inden-1-yl)carbamate [Example 1]
Water-solubility [2]: 1.7 mg/mL

citric acid salt of (S)-quinuclidin-3-yl ((R)-5-(3-chloro-4-isopropoxyphenyl)-2,2-dimethyl-2,3-dihydro-1H-inden-1-yl)carbamate [Comparative Example 3]
Moisture adsorption [1]: 12.2%

HCl salt of (S)-quinuclidin-3-yl ((R)-5-(3-chloro-4-isopropoxyphenyl)-2,2-dimethyl-2,3-dihydro-1H-inden-1-yl)carbamate [Comparative Example 1]
Moisture adsorption [1]: 15.6%
